Laboratory results from patent US20130096170A1 (priority 2011, published 2013).
Where “and” joins values, the source holds several entries; their conditions need not be identical. Identical values can stand only once.

Key:
[1] = system: infants 1 to 24 months postoperative from cardiac surgery; assay: Example 5: pharmacodynamics (UMSS, BIS, additional sedation)
[2] = system: intubated and mechanically ventilated pediatric subjects 2 to <17 years; assay: Example 3: pharmacodynamics (RSS, RASS, FLACC, rescue medication, extubation); settings: for total amount of rescue fentanyl while intubated, mean / total amount of rescue fentanyl while intubated, median / weight-adjusted total amount of rescue fentanyl while intubated, mean / weight-adjusted total amount of rescue fentanyl while intubated, median: full evaluable population
[3] = system: initially intubated and mechanically ventilated pediatric subjects 1 month to <17 years; assay: Example 2: sedation efficacy in pediatric ICU subjects (UMSS, rescue medication, extubation); settings: for median total amount of rescue fentanyl: subjects who required rescue
[4] = system: initially intubated and mechanically ventilated neonates ≥28 to ≤44 weeks gestational age; assay: Example 1: sedation/analgesia efficacy in neonates (N-PASS, rescue medication)
[5] = system: intubated and mechanically ventilated pediatric subjects 12 to <24 months; assay: Example 7: pharmacodynamics (UMSS, FLACC, rescue medication, extubation)

Cc1cccc([C@H](C)c2c[nH]cn2)c1C [dexmedetomidine]
amount of fentanyl administered as additional intra-operative sedation agent ([1]; high dose): 80.20 µg
amount of fentanyl administered as additional intra-operative sedation agent ([1]; low dose): 99.32 µg
amount of fentanyl administered as additional intra-operative sedation agent ([1]; moderate dose): 69.32 µg
total amount of rescue fentanyl while intubated, mean ([2]; Dose Level 1): 49.72 µg
total amount of rescue fentanyl while intubated, median ([2]; Dose Level 1): 36.00 µg
weight-adjusted total amount of rescue fentanyl while intubated, mean ([2]; Dose Level 1): 2.24 µg/kg
weight-adjusted total amount of rescue fentanyl while intubated, median ([2]; Dose Level 1): 1.91 µg/kg
total amount of rescue fentanyl while intubated, mean ([2]; Dose Level 2): 3575.97 µg
total amount of rescue fentanyl while intubated, median ([2]; Dose Level 2): 55.00 µg
weight-adjusted total amount of rescue fentanyl while intubated, mean ([2]; Dose Level 2): 191.13 µg/kg
weight-adjusted total amount of rescue fentanyl while intubated, median ([2]; Dose Level 2): 2.68 µg/kg
total amount of rescue fentanyl while intubated, mean ([2]; Dose Level 3): 51.61 µg
total amount of rescue fentanyl while intubated, median ([2]; Dose Level 3): 30.00 µg
weight-adjusted total amount of rescue fentanyl while intubated, mean ([2]; Dose Level 3): 2.84 µg/kg
weight-adjusted total amount of rescue fentanyl while intubated, median ([2]; Dose Level 3): 1.54 µg/kg
total amount of rescue fentanyl while intubated, mean ([2]; Dose Level 4): 35.46 µg
total amount of rescue fentanyl while intubated, median ([2]; Dose Level 4): 33.00 µg
weight-adjusted total amount of rescue fentanyl while intubated, mean ([2]; Dose Level 4): 2.26 µg/kg
weight-adjusted total amount of rescue fentanyl while intubated, median ([2]; Dose Level 4): 1.75 µg/kg
subjects who received co-administration of midazolam or fentanyl ([2]; Group II, Dose Level 4, of 8 subjects): 3 subjects
median amount per kg of rescue fentanyl ([3]; high dose): 3.25 µg/kg
subjects who received rescue fentanyl for analgesia while intubated ([3]; high dose (44/81)): 54.3%
median total amount of rescue fentanyl ([3]; high dose): 35.13 µg
median amount per kg of rescue fentanyl ([3]; low dose): 4.13 µg/kg
subjects who received rescue fentanyl for analgesia while intubated ([3]; low dose (53/83)): 63.9%
median total amount of rescue fentanyl ([3]; low dose): 46.00 µg
rescue fentanyl given to the one subject requiring analgesia ([4]; additional cohort, age Group I, dose level 2): 2 μg and 0.98 μg/kg
patients given rescue analgesia with fentanyl ([4]; group I (levels 1 and 2)): 17%
patients given rescue analgesia with fentanyl ([4]; group II): 46%
time of first rescue fentanyl after start of infusion ([5]; Subject 01-0001, dose level 2): 1.62 h
time of first rescue fentanyl after start of infusion ([5]; Subject 01-0003, dose level 1): 1.43 h
time of first rescue fentanyl after start of infusion ([5]; Subject 01-0004, dose level 2): 0.67 h
